# From article PMC7723054
# The list shows a part of the results.
# T1: LIN28A (human?, UniProt Q9H9Z2 1-209)
# T1 sequence: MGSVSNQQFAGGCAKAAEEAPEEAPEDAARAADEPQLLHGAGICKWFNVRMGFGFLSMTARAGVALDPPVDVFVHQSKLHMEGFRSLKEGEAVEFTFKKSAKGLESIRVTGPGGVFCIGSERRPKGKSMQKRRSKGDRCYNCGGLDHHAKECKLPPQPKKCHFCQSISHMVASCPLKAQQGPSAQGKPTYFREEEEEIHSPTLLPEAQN
# T2: CIRBP (Homo sapiens, UniProt Q14011 1-172)
# T2 sequence: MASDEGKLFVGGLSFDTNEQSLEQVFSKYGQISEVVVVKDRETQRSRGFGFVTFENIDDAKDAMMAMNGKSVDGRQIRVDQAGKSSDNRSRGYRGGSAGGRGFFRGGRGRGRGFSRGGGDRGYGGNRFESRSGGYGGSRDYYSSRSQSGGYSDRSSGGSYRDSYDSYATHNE
# T3: DHX36 (Homo sapiens, UniProt Q9H2U1 1-1008)
# T3 sequence: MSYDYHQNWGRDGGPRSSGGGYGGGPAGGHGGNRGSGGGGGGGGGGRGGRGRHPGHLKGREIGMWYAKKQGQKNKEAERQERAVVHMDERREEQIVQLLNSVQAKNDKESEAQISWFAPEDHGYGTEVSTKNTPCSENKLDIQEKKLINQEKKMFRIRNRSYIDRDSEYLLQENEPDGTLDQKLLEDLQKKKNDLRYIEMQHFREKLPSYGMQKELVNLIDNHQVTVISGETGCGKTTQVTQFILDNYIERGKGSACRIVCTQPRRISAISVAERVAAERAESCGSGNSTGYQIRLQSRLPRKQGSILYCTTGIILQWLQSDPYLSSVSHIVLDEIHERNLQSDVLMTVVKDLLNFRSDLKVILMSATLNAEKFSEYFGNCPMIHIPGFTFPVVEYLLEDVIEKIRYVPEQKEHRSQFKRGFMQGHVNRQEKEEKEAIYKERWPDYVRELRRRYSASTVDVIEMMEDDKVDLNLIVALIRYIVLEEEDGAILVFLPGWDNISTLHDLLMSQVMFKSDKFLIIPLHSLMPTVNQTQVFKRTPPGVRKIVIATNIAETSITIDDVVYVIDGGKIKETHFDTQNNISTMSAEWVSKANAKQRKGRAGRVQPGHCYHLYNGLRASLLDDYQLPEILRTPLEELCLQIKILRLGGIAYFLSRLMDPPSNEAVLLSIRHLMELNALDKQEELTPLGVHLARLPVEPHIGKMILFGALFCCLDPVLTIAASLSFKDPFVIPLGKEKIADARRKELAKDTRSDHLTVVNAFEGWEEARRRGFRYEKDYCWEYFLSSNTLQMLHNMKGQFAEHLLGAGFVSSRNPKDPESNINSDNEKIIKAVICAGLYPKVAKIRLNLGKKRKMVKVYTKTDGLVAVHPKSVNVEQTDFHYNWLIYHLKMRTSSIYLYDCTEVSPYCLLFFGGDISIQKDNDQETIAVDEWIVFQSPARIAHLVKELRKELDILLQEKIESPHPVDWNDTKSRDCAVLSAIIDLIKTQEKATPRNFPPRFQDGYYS
# B1: hsa-mir-5681b (structured_RNA)
# RNA: GGGAAACGAUAGGGCCGGUGUCAAAAUCGGUGUACGAAGUUUCAGCUAGUCUAAUAGGGACUAGCUGAAGCUUCGUGCAC
# B2: hsa-mir-4308 (structured_RNA)
# RNA: GGGAGUACAUUGUAGGACGUAGAUAACCGGUGUACGAAGUUUCAGCUGGACAGAAAUUUCCUUUUGAGGAAAUCUUUCCCGCUGAAGCUUCGUGCAC
# B3: hsa-mir-320a (structured_RNA)
# RNA: GGGACACCCUCGGGCAGAGAGACAUUCAGGUGUACGAAGUUUCAGCUCUUCCCGGAGUCGGGAAAAGCUGAAGCUUCGUGCAC
# B4: hsa-mir-346 (structured_RNA)
# RNA: GGGAAAUUUGACUGCCGCGUGACUAAGGGGUGUACGAAGUUUCAGCCUCUCUGUUGCUCUGAAGGAGGCUGAAGCUUCGUGCAC
# B5: hsa-mir-6872 (structured_RNA)
# RNA: GGGAAAUGCUGUGUGCGCUCCAUGGAUUGGUGUACGAAGUUUCAGCAAGGCCAGGACCCGCUGACCCAUGCUGAAGCUUCGUGCAC
# B6: hsa-mir-6089-2_6089-1 (structured_RNA)
# RNA: GGGAAGGUAAAAGUCGAUUAGGAACCAUGGUGUACGAAGUUUCAGCCGUGCGCCAGUGGAGGCUGAAGCUUCGUGCAC
# B7: hsa-mir-6068 (structured_RNA)
# RNA: GGGAAGCGCCGCGUUCAUCUUUAAGUGCGGUGUACGAAGUUUCAGCGUGGCUUGUGGCUGAGUGUCACGCUGCGCUGAAGCUUCGUGCAC
# B8: NEAT1_ParasoR_ID30 (structured_RNA)
# RNA: GGGACUGUAUAUCCGGGGUCGAAUUAACGGUGUACGAAGUUUCAGCGUAUACCUUUUUGUACGCUGAAGCUUCGUGCAC
# B9: hsa-mir-6773 (structured_RNA)
# RNA: GGGAAUGGGGCUAUAGGUAUUAUAACCGGGUGUACGAAGUUUCAGCCAGGAUUAGUGCUUAUGCUAAGAUGUCUUCACUGGCUGAAGCUUCGUGCAC
# B10: hsa-mir-1255b-2 (structured_RNA)
# RNA: GGGACUAUAAGCUGAAUGAUGACUUGCCGGUGUACGAAGUUUCAGCGGUUUGCGCCUCAAGAAACCGCUGAAGCUUCGUGCAC
# B11: hsa-mir-6870 (structured_RNA)
# RNA: GGGAAGAAGAUGACGGCUCAAUGCAAUCGGUGUACGAAGUUUCAGCUUGAACUUCAUUUCUCAUGCUCAGCUGAAGCUUCGUGCAC
# B12: hsa-mir-4732 (structured_RNA)
# RNA: GGGAGAUCCCGAGGACGGCAAAGCAAAGGGUGUACGAAGUUUCAGCAAGCUGUGUGUGUCCAGCGCUGAAGCUUCGUGCAC
# B13: hsa-mir-378h (structured_RNA)
# RNA: GGGAAUACGGUGUCAACGGAAAACCUCUGGUGUACGAAGUUUCAGCGGGAUGAGCCCUGGCUCUGUUUCCUAGGCUGAAGCUUCGUGCAC
# Target: T1, LIN28A
# Experiment: FOREST: bead pull-down of RNA structure library v1, barcode microarray; U1A/LIN28A: 20 mM HEPES pH 7.5, 80 mM KCl, 20 mM NaCl, 10% glycerol, 2 mM DTT, 0.1 ug/uL BSA, 4 C; BG4/CIRBP/DHX36: 10 mM Tris-HCl pH 7.5, 100 mM KCl (or LiCl),; high values mean tight binding
row,Binder,binding signal
1,B1,0.208 z-score
2,B2,0.206 z-score
3,B3,0.195 z-score
4,B4,0.189 z-score
5,B5,0.188 z-score
6,B6,0.185 z-score
7,B7,0.183 z-score
8,B8,0.181 z-score
9,B9,0.179 z-score
10,B10,0.179 z-score
11,B11,0.175 z-score
12,B12,0.171 z-score
13,B13,0.169 z-score

# Target: T2, CIRBP
# Experiment: as above
row,Binder,binding signal
1,B1,-0.796 z-score
2,B2,-0.0984 z-score
3,B3,-0.59 z-score
4,B4,0.313 z-score
5,B5,-0.206 z-score
6,B6,0.448 z-score
7,B7,0.749 z-score
8,B8,-0.74 z-score
9,B9,0.518 z-score
10,B10,-0.316 z-score
11,B11,0.7 z-score
12,B12,1 z-score
13,B13,1.27 z-score

# Target: T3, DHX36
# Experiment: as above
row,Binder,binding signal
1,B1,0.337 z-score
2,B2,-0.379 z-score
3,B3,-0.167 z-score
4,B4,-0.443 z-score
5,B5,0.53 z-score
6,B6,-0.102 z-score
7,B7,0.29 z-score
8,B8,-0.523 z-score
9,B9,-0.0785 z-score
10,B10,-0.276 z-score
11,B11,-0.684 z-score
12,B12,-0.0589 z-score
13,B13,-0.0803 z-score
